{"source": "ChEMBL document CHEMBL5236643", "about": "“Discovery and characterization of orally bioavailable 4-chloro-6-fluoroisophthalamides as covalent PPARG inverse-agonists” (Bioorg Med Chem, 2023)", "key": {"[1]": {"molecular_target": "T1, Peroxisome proliferator-activated receptor alpha (Homo sapiens) (UniProt Q07869)", "T1 sequence (whole entry)": "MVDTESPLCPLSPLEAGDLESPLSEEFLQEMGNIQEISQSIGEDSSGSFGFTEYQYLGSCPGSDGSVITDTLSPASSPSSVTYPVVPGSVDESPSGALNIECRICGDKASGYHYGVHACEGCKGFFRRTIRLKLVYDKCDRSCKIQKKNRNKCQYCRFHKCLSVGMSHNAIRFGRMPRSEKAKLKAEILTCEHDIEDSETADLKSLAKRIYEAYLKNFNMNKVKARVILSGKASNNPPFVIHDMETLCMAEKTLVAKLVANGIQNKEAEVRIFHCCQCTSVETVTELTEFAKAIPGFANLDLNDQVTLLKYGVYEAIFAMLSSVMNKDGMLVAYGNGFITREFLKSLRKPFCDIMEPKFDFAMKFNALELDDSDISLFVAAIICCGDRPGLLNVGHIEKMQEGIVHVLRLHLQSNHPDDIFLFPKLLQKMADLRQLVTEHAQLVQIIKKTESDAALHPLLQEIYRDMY", "experiment": "Agonist activity at human PPARalpha expressed in CHO cells co-expressing GAL4-NHR-LBD assessed as transcriptional activation by measuring maximum efficacy preincubated for 6 hrs followed by luciferin addition by luminescence method", "format": "cell-based", "conditions": "filed as agonist"}, "[2]": {"molecular_target": "T2, Peroxisome proliferator-activated receptor delta (Homo sapiens) (UniProt Q03181)", "T2 sequence (whole entry)": "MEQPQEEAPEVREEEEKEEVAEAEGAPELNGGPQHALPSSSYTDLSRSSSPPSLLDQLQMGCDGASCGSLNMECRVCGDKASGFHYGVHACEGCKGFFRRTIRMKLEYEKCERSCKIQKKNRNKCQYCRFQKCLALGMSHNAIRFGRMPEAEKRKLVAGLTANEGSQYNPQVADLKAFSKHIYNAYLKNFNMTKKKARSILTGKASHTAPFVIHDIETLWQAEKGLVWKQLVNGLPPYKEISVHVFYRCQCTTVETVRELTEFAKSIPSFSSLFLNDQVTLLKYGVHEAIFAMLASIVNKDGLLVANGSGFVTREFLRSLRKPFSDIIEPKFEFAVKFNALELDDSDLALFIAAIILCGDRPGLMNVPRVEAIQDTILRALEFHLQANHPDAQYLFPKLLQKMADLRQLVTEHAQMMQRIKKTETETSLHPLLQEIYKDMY", "experiment": "Inverse agonist activity at human PPARdelta expressed in CHO cells co-expressing GAL4-NHR-LBD assessed as transcriptional repression by measuring maximum efficacy preincubated for 6 hrs followed by luciferin addition by luminescence method", "format": "cell-based", "conditions": "filed as inverse agonist"}}}
{"compound": "Cc1c(C)n(Cc2ccc(Cl)c(O[C@@H](C)C(=O)O)c2)c2ccc(C(=O)N[C@@H](C)c3ccc(C(C)(C)C)cc3)cc12", "values": [{"measurement": "Emax", "setting": "[1]", "value": 1610, "unit": "%"}, {"measurement": "Emax", "setting": "[2]", "value": 103, "unit": "%"}]}
